Results published in patent US20180113119A1, “METHODS FOR CHARACTERIZING TIME-BASED HEPATOTOXICITY” (HUREL CORPORATION, priority 2015, published 2018).

Test system: primary human hepatocyte cocultures vs HepG2 cells
Test: Toxicity curve of primary human hepatocyte coculture compared to HepG2 cells, Promega ATP assay
Conditions: four days exposure, one repeat dose on second day

## CC(=O)N1CCN(c2ccc(OCC3COC(Cn4ccnc4)(c4ccc(Cl)cc4Cl)O3)cc2)CC1 (stereo not shown) [ketoconazole]
  shift of human hepatocyte coculture toxicity curve as compared to HepG2 cell toxicity curve: right shift
